The results in this text go back to publication PMC5675004 (Cancer cell, 2015).

Amino acid sequences for entries named in this document (tags omitted). Residues count along the entry.
UniProt Q99835, 28-787 W281C: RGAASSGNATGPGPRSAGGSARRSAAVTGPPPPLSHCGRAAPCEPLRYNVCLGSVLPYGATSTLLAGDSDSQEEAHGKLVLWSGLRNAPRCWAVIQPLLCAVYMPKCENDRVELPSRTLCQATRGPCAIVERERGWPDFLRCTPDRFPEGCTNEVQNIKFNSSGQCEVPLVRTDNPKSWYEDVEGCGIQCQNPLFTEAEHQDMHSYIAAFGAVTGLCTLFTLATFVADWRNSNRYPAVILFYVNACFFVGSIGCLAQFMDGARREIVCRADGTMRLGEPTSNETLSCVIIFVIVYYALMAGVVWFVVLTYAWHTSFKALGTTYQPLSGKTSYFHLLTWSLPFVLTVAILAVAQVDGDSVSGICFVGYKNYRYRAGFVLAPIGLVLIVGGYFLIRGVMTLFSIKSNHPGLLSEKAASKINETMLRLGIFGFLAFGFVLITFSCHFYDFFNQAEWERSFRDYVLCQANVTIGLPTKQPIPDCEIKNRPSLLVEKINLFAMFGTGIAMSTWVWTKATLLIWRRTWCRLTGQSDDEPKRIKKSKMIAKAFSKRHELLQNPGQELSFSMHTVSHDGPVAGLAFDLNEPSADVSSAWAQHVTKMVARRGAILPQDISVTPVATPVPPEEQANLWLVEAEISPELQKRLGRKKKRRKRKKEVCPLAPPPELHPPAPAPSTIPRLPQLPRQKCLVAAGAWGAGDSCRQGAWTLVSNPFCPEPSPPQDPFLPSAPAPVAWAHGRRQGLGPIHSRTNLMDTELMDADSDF

The target of assay [1] is SMO-W281C (Homo sapiens, UniProt Q99835, W281C). Particulars: HEK-293 cells, compared with SMO-WT at similar cell surface levels.
Assay [2] has as its system PPT CGNPs infected with SMO-W281C. Kind of assay: PPT CGNP proliferation, methyl-[3H]-thymidine incorporation. It counts as cell-based, mouse. The following applies: 5 μM vismodegib. For orientation: Dividing cells build labelled thymidine or BrdU into new DNA.

With `CS(=O)(=O)c1ccc(C(=O)Nc2ccc(Cl)c(-c3ccccn3)c2)c(Cl)c1` [vismodegib], the “[3H]-vismodegib binding” value in assay [1] is on record as “impaired vismodegib binding”. Besides, the “proliferation in the presence of vismodegib” value in assay [2] is reported as “continued to proliferate at near untreated levels”.
